Earlier results in paper PMC7238120, “Strong and Selective Inhibitory Effects of the Biflavonoid Selamariscina A against CYP2C8 and CYP2C9 Enzyme Activities in Human Liver Microsomes” (Pharmaceutics, 2020).

The chains behind the UniProt entries cited, without tags or fusion partners.
UniProt P11712, whole entry: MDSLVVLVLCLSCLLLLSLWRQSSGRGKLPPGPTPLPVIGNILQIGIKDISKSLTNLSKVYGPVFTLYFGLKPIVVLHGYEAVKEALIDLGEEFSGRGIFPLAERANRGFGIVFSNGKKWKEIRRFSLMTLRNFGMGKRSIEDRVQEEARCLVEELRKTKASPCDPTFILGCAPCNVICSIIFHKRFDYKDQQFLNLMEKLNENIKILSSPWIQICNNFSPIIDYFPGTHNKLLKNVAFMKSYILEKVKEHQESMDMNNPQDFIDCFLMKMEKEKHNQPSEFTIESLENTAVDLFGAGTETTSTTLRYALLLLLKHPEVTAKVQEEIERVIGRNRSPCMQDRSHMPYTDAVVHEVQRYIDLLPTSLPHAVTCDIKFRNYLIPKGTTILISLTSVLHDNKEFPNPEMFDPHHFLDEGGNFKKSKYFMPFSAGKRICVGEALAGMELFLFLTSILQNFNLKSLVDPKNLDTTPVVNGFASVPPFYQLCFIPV

Target: CYP2C9 (Homo sapiens, UniProt P11712)
Conditions: read-out: Ki, CYP2C9, known inhibitor; cited from earlier work

Question: For OC(Cn1cncn1)(Cn1cncn1)c1ccc(F)cc1F [fluconazole], which Ki is on record?
Answer: Its Ki is 280 nM.
